For orientation: IC50 means the concentration needed to halve the response being measured. A higher IC50 goes with lower potency.

Sequences of proteins named here, by UniProt entry; tags and fusion partners are left off. A change or cut given only in a name is not applied to a line headed by its entry.
UniProt Q12809: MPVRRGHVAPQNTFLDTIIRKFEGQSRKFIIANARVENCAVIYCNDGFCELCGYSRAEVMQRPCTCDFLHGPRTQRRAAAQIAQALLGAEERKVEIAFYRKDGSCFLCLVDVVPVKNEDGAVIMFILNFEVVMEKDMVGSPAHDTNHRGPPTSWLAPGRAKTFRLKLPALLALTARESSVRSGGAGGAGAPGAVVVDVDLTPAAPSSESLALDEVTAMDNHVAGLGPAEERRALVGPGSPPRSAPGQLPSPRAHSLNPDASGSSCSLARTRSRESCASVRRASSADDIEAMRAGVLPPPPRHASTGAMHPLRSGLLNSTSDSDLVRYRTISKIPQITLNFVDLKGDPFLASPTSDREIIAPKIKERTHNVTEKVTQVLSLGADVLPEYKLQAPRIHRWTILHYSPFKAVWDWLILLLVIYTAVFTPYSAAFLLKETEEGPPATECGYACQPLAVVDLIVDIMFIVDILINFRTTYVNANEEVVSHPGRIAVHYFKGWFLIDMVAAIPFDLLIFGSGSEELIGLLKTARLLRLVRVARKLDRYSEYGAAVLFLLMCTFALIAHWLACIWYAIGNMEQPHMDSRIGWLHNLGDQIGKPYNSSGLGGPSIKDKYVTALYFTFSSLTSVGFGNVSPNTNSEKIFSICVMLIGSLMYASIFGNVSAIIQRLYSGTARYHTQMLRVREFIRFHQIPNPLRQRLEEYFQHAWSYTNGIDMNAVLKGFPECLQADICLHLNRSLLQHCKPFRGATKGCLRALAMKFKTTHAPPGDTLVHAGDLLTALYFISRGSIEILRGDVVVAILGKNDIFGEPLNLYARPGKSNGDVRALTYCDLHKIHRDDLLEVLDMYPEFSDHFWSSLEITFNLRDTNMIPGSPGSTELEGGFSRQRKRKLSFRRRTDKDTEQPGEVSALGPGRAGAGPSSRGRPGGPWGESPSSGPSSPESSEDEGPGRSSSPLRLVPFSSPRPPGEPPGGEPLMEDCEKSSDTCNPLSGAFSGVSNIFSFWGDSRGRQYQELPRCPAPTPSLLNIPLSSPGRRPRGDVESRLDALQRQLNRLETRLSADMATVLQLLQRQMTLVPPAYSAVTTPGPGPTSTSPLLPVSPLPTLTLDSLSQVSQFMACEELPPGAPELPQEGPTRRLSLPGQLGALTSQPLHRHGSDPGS

The text below walks through data of paper PMC6593233 (Frontiers in Pharmacology, 2019).

The assay addresses T1, hKv11.1 (Homo sapiens, UniProt Q12809).
T1 construct: expressed in transfected cells
Nature of the assay: Automated patch clamp (QPatch), IKr in CHO-K1 cells stably expressing Kv11.1. Format: cell-based. Conditions: hKv11.1, automated patch clamp, present study.

In the case of `Cc1nccn1CC1CCc2c(c3ccccc3n2C)C1=O` (stereo not shown) [Ondansetron], the IC50 came to 2790 nM.
